# Test results reported in patent US20090163452A1, “COMPOSITIONS AND METHODS FOR LOWERING SERUM CHOLESTEROL” (priority 2007, published 2009).
# Conditions: during the On-D period; 16 subjects; chronic constipation in one, irritable bowel syndrome in the other
substance,measurement,value
vitamin D,Constipation reported (subjects),two
